{"source": "patent US20230035491A1", "about": "“METHODS, KITS AND COMPOSITIONS FOR REDUCING CARDIOTOXICITY ASSOCIATED WITH CANCER THERAPIES” (Baruch S. Blumberg Institute, priority 2019, published 2023)", "key": {"cardiac progenitor iPSCs": {"tested_on": "cardiac progenitor iPSCs", "test": "Cell death of cardiac precursor iPSCs with saline or DOX and maraviroc, propidium iodide", "type": "cell-based", "settings": "maraviroc alone (0-100 m), 24 hours", "source_text": "(mean+/−SD, n=3). […] Data represents mean+/−SD (n=3)."}, "[1]": {"test": "Chronic maraviroc, cardiac function by echocardiography", "type": "in vivo, mice", "settings": "maraviroc 16 mg/kg twice daily gavage, 9 months, n=3, vs vehicle", "experimental": "Mice (n=3) were treated for 9 months with maraviroc (16 mg/kg, twice daily gavage) or vehicle. At the end of 9 months, measurements of cardiac function were made using echocardiography with the Vevo 770 preclinical high frequency ultrasound system (Visualsonics). M-mode analysis of the resulting images provided indices of cardiac systolic and diastolic function. In FIG. 12a, function indices of myocardial anatomy were assessed including thickness of the left ventricular free wall (LVFW) and posterior wall (LVPW) at the end of cardiac function (systole) and relaxation (diastole). Measurements are of wall thickness in mm. Within FIG. 12b, cardiac function was assessed using echocardiography. Indices include stroke volume (Stroke V) which is the volume expelled from the left ventricular upon each cardiac contraction (μL), ejection fraction (EF) which is the percentage of the left ventricular volume expelled with each cardiac contraction (%), fractional shortening (FS) which is the proportion of diastolic dimension lost in systole (%), and cardiac output (CO) which is the total cardiac output per minute (stroke volume×heart rate)(ml/min). Data represent the vehicle (water with 5% (v/v) DMSO and 1% (v/v) 1N HCL) control (solid border) and maraviroc treated mice (non-solid border)."}, "[2]": {"test": "Immunostaining of myocardium after chronic maraviroc (CD31, ARC, Bcl2, Activated Caspase 3)", "type": "in vivo, mice", "settings": "maraviroc 16 mg/kg twice daily gavage, 9 months, n=3 per group", "experimental": "After 9 months hearts were excised and fixed overnight in paraformaldehyde. Fixed tissues were embedded in paraffin blocks and sectioned (5 mm) in preparation for immunostaining. After deparaffinization and rehydration, antigen retrieval was performed in Tris buffer (pH 9) on the resulting sections. After blocking sections were incubated with an antibodies to assess vascularity (CD31) and myocardial health (ARC, Bcl2, Activated Caspase 3). Antibody binding was visualized using an HRP-conjugated second antibody and Nova red substrate. Haematoxylin was used for nuclear visualization."}}}
{"substance": "maraviroc", "values": [{"measurement": "viability of cardiac progenitor iPSCs", "setting": "cardiac progenitor iPSCs", "result": "no significant effect"}, {"measurement": "cardiac function (wall thickness, stroke volume, EF, FS, CO)", "setting": "[1]", "result": "do not affect murine cardiac function"}, {"measurement": "cardiac myocyte health (ARC, Bcl2, Activated Caspase 3)", "setting": "[2]", "result": "nor did chronic maraviroc consumption significantly impact cardiac myocyte health"}, {"measurement": "vascularity of the myocardium (CD31)", "setting": "[2]", "result": "did not change the vascularity"}]}
